Earlier results on 1 compound are cited in patent publication US5985868A, “Methods and compositions for treating androgen-dependant diseases using optically pure R-(-) casodex” (Sepracor Inc., priority 1998, dated 1999).

SMILES strings stand for the structures.

For data set [1], the system named is peripheral androgen receptors.

Regarding `CC(O)(CS(=O)(=O)c1ccc(F)cc1)C(=O)Nc1ccc(C#N)c(C(F)(F)F)c1` (racemic) [racemic casodex, 4'-cyano-3-[(4-fluorophenyl)sulfonyl]-2-hydroxy-2-methyl-3'-(trifluoromethyl)propionanilide], in data set [1], the “antagonist selectivity at peripheral androgen receptors” value is given as “very selective antagonist”. Also, the progestational activity result with progestational activity was “no progestational or glucocorticoid activity”.
